From PMC3537913 (Clinical cancer research : an official journal of the …, 2012)
Where a name gives a salt, the structure may show the parent alone.

Tested on: soluble VEGFR2 (sVEGFR2)
Details: day 21, p = 0.019

CNC(=O)c1cc(Oc2ccc(NC(=O)Nc3ccc(Cl)c(C(F)(F)F)c3)cc2)ccn1 [sorafenib, Sorafenib tosylate]
correlation of sorafenib steady-state concentrations with inhibition of VEGFR2: inversely correlated
